# Source: patent US9339423B2, “Absorbent article” (UNICHARM CORPORATION, priority 2012, dated 2016)
# Read-outs that look alike come from different tables or passages of the source.
# Assay: Water solubility, visual evaluation after 24 hours
# Excerpt: As used herein, the term “solubility” in regard to water solubility includes cases where the sample completely dissolves in deionized water to form a homogeneous mixture, and cases where the sample is completely emulsified. As used herein, “completely” means that no mass of the sample remains in the deionized water.
# [1] = in 100 g of water at 25° C., 24 hours
Substance,Water solubility [1] [g],other results
Polyoxybutylenepolyoxypropylene glycol [UNIOL PB700],–,Water solubility: <0.05 g
Octadecanoic acid (C18) monoester of butylene glycol [COMPOL BS],<0.05,–
Dodecanoic acid (C12) monoester of butylene glycol [COMPOL BL],<0.05,–
Isopropyl citrate,–,Water solubility (g): 20< g
